# Results as given in PubChem BioAssay AID588354 (The Scripps Research Institute Molecular Screening Center, 2011).
# Sequences of proteins named here, by UniProt entry; tags and fusion partners are left off.
# UniProt Q15788, whole entry: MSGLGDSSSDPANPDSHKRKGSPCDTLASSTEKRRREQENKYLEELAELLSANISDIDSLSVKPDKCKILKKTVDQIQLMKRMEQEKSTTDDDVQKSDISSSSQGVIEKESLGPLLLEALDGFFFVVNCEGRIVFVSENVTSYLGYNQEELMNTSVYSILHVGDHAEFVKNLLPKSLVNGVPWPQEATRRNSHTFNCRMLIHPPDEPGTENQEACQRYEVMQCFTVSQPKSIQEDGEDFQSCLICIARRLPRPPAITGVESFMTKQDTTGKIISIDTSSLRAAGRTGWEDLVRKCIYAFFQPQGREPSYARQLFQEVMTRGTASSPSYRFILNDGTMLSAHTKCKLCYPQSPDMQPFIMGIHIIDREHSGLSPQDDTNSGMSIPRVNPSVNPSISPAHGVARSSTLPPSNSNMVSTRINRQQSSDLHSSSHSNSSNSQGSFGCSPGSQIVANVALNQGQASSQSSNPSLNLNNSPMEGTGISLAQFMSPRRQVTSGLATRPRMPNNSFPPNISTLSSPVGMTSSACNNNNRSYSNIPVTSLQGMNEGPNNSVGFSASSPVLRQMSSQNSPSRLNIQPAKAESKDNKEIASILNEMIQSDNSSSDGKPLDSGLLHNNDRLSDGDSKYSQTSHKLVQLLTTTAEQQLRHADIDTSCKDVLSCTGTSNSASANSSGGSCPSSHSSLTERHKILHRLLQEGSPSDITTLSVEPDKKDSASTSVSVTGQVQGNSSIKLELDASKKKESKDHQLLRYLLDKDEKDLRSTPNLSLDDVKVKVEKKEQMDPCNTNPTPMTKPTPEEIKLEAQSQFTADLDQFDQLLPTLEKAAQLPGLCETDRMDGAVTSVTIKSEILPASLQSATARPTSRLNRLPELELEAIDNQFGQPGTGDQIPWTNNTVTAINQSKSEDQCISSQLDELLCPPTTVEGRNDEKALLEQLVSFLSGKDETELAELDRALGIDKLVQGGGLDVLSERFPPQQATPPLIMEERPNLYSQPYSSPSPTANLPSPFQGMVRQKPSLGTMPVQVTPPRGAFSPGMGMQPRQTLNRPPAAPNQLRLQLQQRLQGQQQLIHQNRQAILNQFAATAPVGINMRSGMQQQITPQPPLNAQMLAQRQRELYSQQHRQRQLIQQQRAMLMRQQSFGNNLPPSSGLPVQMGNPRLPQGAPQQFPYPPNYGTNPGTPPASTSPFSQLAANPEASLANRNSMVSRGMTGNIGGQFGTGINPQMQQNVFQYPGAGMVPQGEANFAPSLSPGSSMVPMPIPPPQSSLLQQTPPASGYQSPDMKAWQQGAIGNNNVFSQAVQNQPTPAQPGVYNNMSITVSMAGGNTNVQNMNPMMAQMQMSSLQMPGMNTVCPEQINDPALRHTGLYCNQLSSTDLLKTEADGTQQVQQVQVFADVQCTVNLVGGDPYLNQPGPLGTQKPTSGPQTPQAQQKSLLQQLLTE
# This is a selection; strong and weak results do not stand in their true shares. Calls of active or inactive are those of the source.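 Rule for the calls: active = inhibition above the campaign mean plus 3 SD, with each screening campaign given its own cutoff (cut at about 60% in these data); inactive = the rest.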
# Target: Nuclear receptor coactivator 1 (Homo sapiens) (UniProt Q15788)
# Assay: SRC1 coactivator transcriptional activity inhibitors, primary screen, cell-based, luminescence (AID 588354);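 note: 0% = DMSO treated cells and 100% = gossypol at 36 µM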
# Conditions: HEK293 GAL4-SRC1 luciferase reporter, at 3.6 µM, hits give high values
row,SMILES,inhibition
1,CP(=O)(Nc1cccc(Br)c1)Oc1ccccc1 (stereo unspecified),inactive: 2.94%
